From patent EP0698614A1, “Endothelin-antagonizing peptide” (KYOWA HAKKO KOGYO CO., LTD., priority 1994, dated 1996) come the findings set out here.

Protein sequences, listed by entry. Tags and fused reporters are not part of them. Residues count along the entry.
UniProt P21450, 21-427: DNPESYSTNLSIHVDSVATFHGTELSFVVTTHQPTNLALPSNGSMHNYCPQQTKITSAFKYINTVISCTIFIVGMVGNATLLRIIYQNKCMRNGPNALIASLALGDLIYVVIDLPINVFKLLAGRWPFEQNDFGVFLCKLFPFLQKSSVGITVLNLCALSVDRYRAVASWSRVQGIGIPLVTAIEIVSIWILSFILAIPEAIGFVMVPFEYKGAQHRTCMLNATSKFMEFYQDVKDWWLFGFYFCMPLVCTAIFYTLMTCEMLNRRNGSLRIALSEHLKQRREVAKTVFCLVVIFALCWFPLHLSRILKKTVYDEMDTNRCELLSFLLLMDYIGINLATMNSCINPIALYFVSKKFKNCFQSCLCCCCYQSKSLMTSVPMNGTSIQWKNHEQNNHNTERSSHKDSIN

In experiment [1] the target is T1, endothelin receptor (Bos taurus, UniProt P28088).
T1 construct: the suspension was used as a membrane fraction liquid; from tissue; host or cells: bovine cerebellum membrane fraction
T1 sequence (P28088 27-441): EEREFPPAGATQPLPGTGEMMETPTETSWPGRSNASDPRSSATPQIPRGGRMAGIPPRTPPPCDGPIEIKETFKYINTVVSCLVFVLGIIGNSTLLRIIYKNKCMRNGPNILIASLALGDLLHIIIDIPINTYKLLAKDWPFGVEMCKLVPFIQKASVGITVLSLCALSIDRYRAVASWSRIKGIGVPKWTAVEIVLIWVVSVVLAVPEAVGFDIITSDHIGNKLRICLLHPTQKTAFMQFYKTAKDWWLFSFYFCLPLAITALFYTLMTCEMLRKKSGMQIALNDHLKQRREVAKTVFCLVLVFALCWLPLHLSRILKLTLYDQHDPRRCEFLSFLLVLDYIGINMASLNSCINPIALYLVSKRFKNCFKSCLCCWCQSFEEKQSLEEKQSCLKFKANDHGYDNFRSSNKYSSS
As to the kind of experiment: Endothelin receptor binding inhibition (125I-endothelin-1), bovine cerebellum membrane fraction (Test Example 1). How it is done: (§1) The resulting solid substance was prepared as a suspension containing 2 mg/ml of protein, and the suspension was used as a membrane fraction liquid. […]

Experiment [2] addresses T2, endothelin receptor (Bos taurus, UniProt P21450).
T2 construct: from tissue; host or cells: bovine lung membrane fraction (RES-701-1 added at 1.5 µg/ml)
Put plainly: Endothelin receptor binding inhibition (125I-endothelin-1), bovine lung membrane fraction with RES-701-1 added (Test Example 2). The method, then: as §1

The structures appear in SMILES notation. pIC50: −log10 of the molar value.

With `C[C@@H]1NC(=O)[C@H]([C@@H](C)O)NC(=O)CNC(=O)[C@H](Cc2c[nH]cn2)NC(=O)[C@H](Cc2c[nH]c3ccccc23)NC(=O)[C@H](CC(N)=O)NC(=O)CNC(=O)C[C@@H](C(=O)N[C@@H](Cc2c[nH]c3ccccc23)C(=O)N[C@@H](Cc2ccccc2)C(=O)N[C@@H](Cc2ccccc2)C(=O)N[C@@H](CC(N)=O)C(=O)N[C@@H](Cc2ccc(O)cc2)C(=O)N[C@@H](Cc2ccc(O)cc2)C(=O)N[C@@H](Cc2c[nH]c3ccccc23)C(=O)O)NC(=O)[C@@H]2CCCN2C1=O` [RES-701-1, reference compound], the negative-log IC50 (pIC50) (in general, the IC50 on a negative log10 scale, so that one unit is a factor of ten) on endothelin receptor [1] was 8.00; at endothelin receptor [2] it was below 6.00.
